Like-named read-outs stand apart in the source and are kept apart here.
Assays:
[1] = molecular target: MMP-13 (Homo sapiens, UniProt P45452); settings: read-out: MMP-13 IC50, recombinant human MMP-13, MCA peptide substrate 4 μM, pH 7.5, room temperature
[2] = molecular target: MMP-1 (Homo sapiens, UniProt P03956); settings: read-out: MMP-1 IC50, recombinant human MMP-1, MCA peptide substrate 4 μM, pH 7.5, room temperature
[3] = molecular target: MMP-2 (Homo sapiens, UniProt P08253); settings: read-out: MMP-2 IC50, recombinant human MMP-2, MCA peptide substrate 4 μM, pH 7.5, room temperature

Chains of the proteins cited; added tags and fusions are not shown. Residues count along the entry.
UniProt P03956, 100-469 limits assumed: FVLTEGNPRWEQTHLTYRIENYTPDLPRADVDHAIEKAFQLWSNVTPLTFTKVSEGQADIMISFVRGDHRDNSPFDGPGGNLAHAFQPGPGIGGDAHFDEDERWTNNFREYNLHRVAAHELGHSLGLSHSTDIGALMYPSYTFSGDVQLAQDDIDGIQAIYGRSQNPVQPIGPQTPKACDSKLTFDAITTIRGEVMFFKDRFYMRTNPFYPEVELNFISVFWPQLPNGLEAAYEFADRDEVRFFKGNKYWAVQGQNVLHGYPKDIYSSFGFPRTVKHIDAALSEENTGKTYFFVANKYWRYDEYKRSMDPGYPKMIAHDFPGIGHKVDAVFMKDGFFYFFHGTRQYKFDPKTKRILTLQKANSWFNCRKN
UniProt P08253, 110-660 limits assumed: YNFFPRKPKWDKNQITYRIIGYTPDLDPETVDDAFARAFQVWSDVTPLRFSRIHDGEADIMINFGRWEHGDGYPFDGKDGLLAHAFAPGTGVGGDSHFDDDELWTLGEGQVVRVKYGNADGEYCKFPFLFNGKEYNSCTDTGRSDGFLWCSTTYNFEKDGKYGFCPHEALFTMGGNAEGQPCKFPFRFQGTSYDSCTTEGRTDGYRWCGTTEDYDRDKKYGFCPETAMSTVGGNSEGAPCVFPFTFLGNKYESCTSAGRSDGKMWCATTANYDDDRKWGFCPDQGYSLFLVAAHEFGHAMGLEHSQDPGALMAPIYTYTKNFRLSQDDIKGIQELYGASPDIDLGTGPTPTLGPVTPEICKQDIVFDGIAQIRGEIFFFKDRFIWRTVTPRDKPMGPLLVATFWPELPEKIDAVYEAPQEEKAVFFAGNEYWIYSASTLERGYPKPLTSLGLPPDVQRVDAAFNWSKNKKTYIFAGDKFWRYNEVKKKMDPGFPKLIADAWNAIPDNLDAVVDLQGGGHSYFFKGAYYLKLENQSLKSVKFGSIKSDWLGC

COc1ccc(N2CCN(c3ccc(S(=O)(=O)C4(C(=O)NO)CCN(C5CC5)CC4)cc3)CC2)cc1 [Example 368]
IC50 ([1]; tested form: 2HCl): 0.5 nM

O=C(Nc1cccc(Cl)c1)N1CCC(C(=O)NO)(S(=O)(=O)c2ccc(Oc3ccc(OC(F)(F)F)cc3)cc2)CC1
IC50 [1]: 2.7 nM
IC50 [2]: > 10000 nM
IC50 ([3]; no asterisk): < 0.1 nM

O=C(NO)C1(S(=O)(=O)c2ccc(N3CCCNCC3)cc2)CCOCC1
IC50 ([1]; tested form: TFA): 4200 nM
IC50 ([2]; tested form: TFA): > 10000 nM
IC50 ([3]; tested form: TFA): 3700 nM

CC(C)OCCCNc1ccc(S(=O)(=O)C2(C(=O)NO)CCOCC2)cc1
IC50 [1]: 290 nM

CCCCOCCCNc1ccc(S(=O)(=O)C2(C(=O)NO)CCOCC2)cc1
IC50 [1]: 25.4 nM

O=C(NO)C1(S(=O)(=O)c2ccc(N3CCC(OCc4ccc(C(F)(F)F)cc4)CC3)cc2)CCN(C2CC2)CC1
IC50 ([1]; tested form: TFA): 4.8 nM
IC50 ([2]; tested form: TFA): > 10000 nM
IC50 ([3]; no asterisk, tested form: TFA): 330 nM

O=C(NO)C1(S(=O)(=O)c2ccc(Oc3ccc(OC(F)(F)F)cc3)cc2)CCN(S(=O)(=O)c2ccccc2OC(F)(F)F)CC1
IC50 [1]: 3.5 nM
IC50 [2]: > 10000 nM
IC50 ([3]; no asterisk): 0.15 nM

— US6750228B1, “Aromatic sulfone hydroxamic acid metalloprotease inhibitor” (priority 1997, dated 2004)
